High-throughput results: PubChem, National Center for Advancing Translational Sciences (NCATS)
uPA generation: inhibitors of cell surface uPA generation; Potency, µM (titrated, usually from 38.3 µM), for inactives: at the highest dose activity change, negative = inhibition, most hits filed as inhibitors; cell surface uPA generation assay, qHTS; 0.31% of 330,000 active; AID 540303; active = well fitted inhibition curve with a large enough effect; inconclusive = small, poorly fitted or top-dose-only effect; inactive = no such curve, though single readings can be large or run the other way; tested in mouse RAW 264.7 cells; also: potency is read from the fitted curve at half-maximal effect; % is scaled to controls: 0 for no effect and ±100 for the full control effect; nearly all actives have a fitted effect of over 55% in size
DT40 TDP1 CPT: growth inhibition of DT40 Tdp1-/-;hTDP1 cells with camptothecin (screen for TDP1 inhibitors). chicken DT40 Tdp1-/-;hTDP1 cells + 20 nM CPT, ATP luminescence, 48 h. 12% of 420,000 active. Potency, µM (doses to about 46.2 µM), inactives show at the top dose activity change, negative = growth inhibition, usual class: inhibitors; also: potency is read from the fitted curve at half-maximal effect; % is scaled to controls: 0 for no effect and ±100 for the full control effect; nearly all actives have a fitted effect of over 55% in size
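Cell growth measured by CellTiter-Glo luminescence after a minimum 48 h, 37 C compound exposure with 20 nM CPT in Tdp1-knockout DT40 cells stably expressing hTDP1, seeded 400/well; qHTS titration format.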
TDP1 cell noCPT: qHTS for Inhibitors of human tyrosyl-DNA phosphodiesterase 1 (TDP1): qHTS in cells in absence of CPT. DT40 Tdp1-/- hTDP1 cells, no CPT, ATP luminescence, 48 h. Potency, µM (doses to about 46.2 µM), for the others: at the highest dose activity change, negative = growth inhibition, usual class: inhibitors. 15% of 420,000 active. AID 686978, 2013; also: potency is read from the fitted curve at half-maximal effect; % is scaled to controls: 0 for no effect and ±100 for the full control effect; nearly all actives have a fitted effect of over 55% in size
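Readout: luminescence from CellTiter-Glo after 30 min in the dark at RT. Cells: DT40 Tdp1-/- with stable hTDP1, 400/well. Exposure: compounds alone, ≥48 hr, 37 °C.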
miR-21 reporter: miR-21 reporter, rising signal; HeLa miR-21 FLuc reporter, luciferase, 48 h; Potency, µM (top dose mostly 38.3 µM), without a hit: at the top dose reporter change, positive = more light; 340,000 tested, under 10 active; active = well fitted rising curve with a large enough effect; inconclusive = small, poorly fitted or top-dose-only effect; inactive = no such curve, though single readings can be large or run the other way;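 note: % of control where 0% means no effect; miR-21 action dims this reporter so a rising signal means less miR-21 action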
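Using DMEM plus 10% FBS, HeLa miR-21-FLuc cells are incubated with test compounds (final up to about 40uM) for 48 hours; firefly luciferase signal is then imaged following reagent-mediated lysis.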
TDP1 block: TDP1 (human) enzyme inhibition. AID 485290. 0.28% of 350,000 active. recombinant TDP1, AlphaScreen DNA substrate cleavage. Potency, µM (highest dose often 130 µM), inactives show top-dose activity change, negative = inhibition, actives largely listed as inhibitors; also: potency is read from the fitted curve at half-maximal effect; % is scaled to controls: 0 for no effect and ±100 for the full control effect; nearly all actives have a fitted effect of over 40% in size
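Here, a 5' biotin and 3' phosphotyrosine-FITC DNA oligonucleotide reports Tdp1 activity: intact substrate bridges AlphaScreen beads, while cleavage leaves a 3' phosphate and drops signal. All incubations at room temperature.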
* marks the source's active call; other numbers are inactive results; ? = inconclusive; · = no result given; [ ] = another dose, or the depositor's remark. Sampled rows, rich in hits. Any-hit rate of the full collection: about 16%. Unless noted, calls follow the shape of the dose curve; as a rule, active = well fitted curve in the direction sought with a large enough effect; inconclusive = small, poorly fitted or top-dose-only effect, or another doubt; inactive = no such curve, though single readings can be large; an effect the other way counts as inactive or inconclusive.

cpd	SMILES	TDP1 block	uPA generation	TDP1 cell noCPT
1	COC(=O)N1C(=O)[C@@](c2ccccc2)(C2CCCCC2)N1C(=O)OC	·	8.9µM*	18µM*
2	CC[C@]1(c2ccccc2)C(=O)N(C(=O)OC)N1C(=O)OC	·	-3%	16µM*
3	COC(=O)N1C(=O)[C@](c2ccccc2)(C(C)C)N1C(=O)OC	·	?	?
4	CCC1(c2ccccc2)NC(=O)N(CC(=O)NCc2ccccc2OC)C1=O (centres undefined)	7%	2%	0%
5	CC[C@@]1(c2ccccc2)C(=O)N(C(=O)OC)N1C(=O)OC	·	-6%	?
6	CCN1C(=O)CSC1=Nc1ccc(Cl)c(Cl)c1	·	-3%	?
7	Cc1cc(C)cc(NC(=O)C2CCCN(c3ncccn3)C2)c1 (centres undefined)	·	2%	?
8	Cc1ccc(NC(=S)N2CCC(c3nc4ccccc4s3)CC2)cc1C	6%	-7%	?
9	Oc1ccc2c(c1)OC(c1ccc(O)c(O)c1)C(O)C2 (centres undefined)	8%[56.1 µM]	·	-16%
10	COC(=O)N1C(=O)[C@](Cc2ccccc2)(c2ccccc2)N1C(=O)OC	·	?	12µM*
11	CC[C@@]1(c2ccccc2C)C(=O)N(C(=O)OC)N1C(=O)OC	·	12%	?
12	Cc1ccccc1CNC(=O)COc1ccccc1	·	?	1%

cpd	DT40 TDP1 CPT	miR-21 reporter
1	?	0%
2	21µM*	0%
3	?	2%
4	2%	8%
5	8.2µM*	0%
6	-34%	7%
7	-24%	-4%
8	?	-5%
9	?	·
10	13µM*	3%
11	13µM*	2%
12	-21%	-27%

Following part.
cpd	SMILES	TDP1 block	uPA generation	TDP1 cell noCPT
13	COc1cc(C(=O)Nc2ccc(S(=O)(=O)N3CCCCC3C)cc2)cc(OC)c1OC (centres undefined)	4%	-4%	?
14	COc1ccc(C(=O)Nc2ccc(S(=O)(=O)N3CCCCC3C)cc2)c(OC)c1OC (centres undefined)	8%	-6%	16µM*
15	CN(C)c1ccc(CC(=O)N2CCCCC2c2cc(C(=O)Nc3cccc(C#N)c3)no2)cc1 (centres undefined)	·	·	23µM*
16	CC(C)NC(=O)c1cc(C2CCCCN2C(=O)c2ccc(C#N)cc2)on1 (centres undefined)	·	·	1%
17	Cc1ccc(C)c(CC(=O)N2CCCCC2c2cc(C(=O)Nc3cccc(C#N)c3)no2)c1 (centres undefined)	·	·	23µM*
18	CCCC(=O)N1CCOCC1c1cc(C(=O)Nc2ccccc2)no1 (centres undefined)	·	·	-26%
19	CN(C)c1ccc(CC(=O)N2CCCCC2c2cc(C(=O)Nc3ccccc3)no2)cc1 (centres undefined)	·	·	26µM*
20	Cc1ccc(F)cc1C(=O)N1CCCCC1c1cc(C(=O)Nc2cccc(C#N)c2)no1 (centres undefined)	·	·	21µM*
21	CC(Oc1cc2oc(=O)c3c(c2cc1Cl)CCC3)C(=O)NCc1ccncc1 (centres undefined)	1%	2%	?
22	CS(=O)(=O)N1CCCCC1c1cc(C(=O)Nc2ccccc2Cl)no1 (centres undefined)	·	·	-27%
23	CN(C)c1ccc(CC(=O)N2CCCCC2c2cc(C(=O)Nc3cccc4c3CCCC4)no2)cc1 (centres undefined)	·	·	?
24	COc1ccc(N2CCN(C(=O)CSc3nnnn3C3CC3)CC2)cc1	2%	10%	1%

cpd	DT40 TDP1 CPT	miR-21 reporter
13	21µM*	18%
14	18µM*	17%
15	?	·
16	?	·
17	23µM*	·
18	-3%	·
19	21µM*	·
20	29µM*	·
21	12%	-1%
22	-22%	·
23	26µM*	·
24	-17%	·

Next part.
cpd	SMILES	TDP1 block	uPA generation	TDP1 cell noCPT
25	CCn1c(=S)sc2c(=O)n(CC(=O)Nc3ccccc3C(F)(F)F)c(C)nc21	45µM*	-5%	?
26	CCn1c(=S)sc2c(=O)n(CC(=O)Nc3ccccc3)c(C)nc21	5%	1%	?
27	Cc1nc2c(sc(=S)n2Cc2ccco2)c(=O)n1CC(=O)Nc1cc(F)ccc1F	6%	4%	?
28	Cc1csc(NC(=O)CSc2ccc3nnc(CCNS(=O)(=O)c4ccccc4)n3n2)n1	3%	0%	?
29	COc1ccc(S(=O)(=O)NCCc2nnc3ccc(SCC(=O)Nc4ccc(C(F)(F)F)cc4)nn23)cc1	0%	·	23µM*
30	Cc1ccc(NC(=O)CSc2ccc3nnc(CCNS(=O)(=O)c4ccccc4)n3n2)cc1Cl	0%	·	?
31	Cc1ccc(S(=O)(=O)N(CC2CO2)c2ccccc2[N+](=O)[O-])cc1 (centres undefined)	2%	-9%	?
32	Cc1ccc(S(=O)(=O)N(CC(=O)NCC2CCCO2)c2cccc([N+](=O)[O-])c2)cc1 (centres undefined)	8%	-13%	2%
33	O=S(=O)(c1ccccc1)N(CC1CO1)c1cccc2ccccc12 (centres undefined)	0%	-5%	23µM*
34	Cc1ccc(S(=O)(=O)N(CC2CO2)c2cccc([N+](=O)[O-])c2)cc1 (centres undefined)	2%	-4%	23µM*
35	CC(C)[C@H](NC(=O)C1CCN(S(=O)(=O)c2ccccc2)CC1)C(=O)NCc1ccccn1	2%	1%	20%
36	NC(=S)NN=C1c2cc(Cl)ccc2-c2c1cc(Cl)cc2[N+](=O)[O-]	·	-9%	?

cpd	DT40 TDP1 CPT	miR-21 reporter
25	-23%	1%
26	?	7%
27	12µM*	-3%
28	0%	1%
29	?	1%
30	16µM*	2%
31	12µM*	0%
32	-12%	1%
33	21µM*	-1%
34	12µM*	12%
35	-18%	0%
36	?	·

Structures from the list above with a cyano group, in the order listed:
cpd	SMILES	TDP1 block	uPA generation	TDP1 cell noCPT
15	CN(C)c1ccc(CC(=O)N2CCCCC2c2cc(C(=O)Nc3cccc(C#N)c3)no2)cc1 (centres undefined)	·	·	23µM*
16	CC(C)NC(=O)c1cc(C2CCCCN2C(=O)c2ccc(C#N)cc2)on1 (centres undefined)	·	·	1%
17	Cc1ccc(C)c(CC(=O)N2CCCCC2c2cc(C(=O)Nc3cccc(C#N)c3)no2)c1 (centres undefined)	·	·	23µM*
20	Cc1ccc(F)cc1C(=O)N1CCCCC1c1cc(C(=O)Nc2cccc(C#N)c2)no1 (centres undefined)	·	·	21µM*

cpd	DT40 TDP1 CPT	miR-21 reporter
15	?	·
16	?	·
17	23µM*	·
20	29µM*	·

Additional results follow.
cpd	SMILES	TDP1 block	uPA generation	TDP1 cell noCPT
37	COc1cc2c(cc1[N+](=O)[O-])-c1ccc([N+](=O)[O-])cc1C2=NNC(N)=S	·	·	7.3µM*
38	O=C(CCCc1ccccc1)Nc1cccnc1	3%	-1%	-17%
39	Cc1cccc(N2CCN(Cc3nnc(-c4ccccc4C)o3)CC2C)c1 (centres undefined)	2%	·	?
40	N#C/C(=C\c1cccs1)C(=O)NCc1ccco1	3%	-1%	-6%
41	C=C[C@]1(C)C=C2CC[C@H]3[C@@](C)(CCC[C@@]3(C)C(=O)O)[C@@H]2CC1	0%	18%	-11%
42	C=C[C@]1(C)C=C2C(=O)[C@@]3(O)OC(=O)[C@@]4(CCCC(C)(C)[C@H]34)[C@@]2(O)CC1	·	·	1.6µM*
43	CCOC(=O)c1nn(-c2ccccc2)c(C#N)c1NC(=O)c1nn(CC)cc1Br	4%	14%	18µM*
44	CCOC(=O)c1ccc(NC(=O)c2nn(CC)cc2Br)cc1	2%	-2%	-19%

cpd	DT40 TDP1 CPT	miR-21 reporter
37	?	·
38	-4%	-44%
39	13µM*	0%
40	5%	-26%
41	-24%	·
42	0.65µM*	·
43	15µM*	-6%
44	-2%	-36%
